Earlier results as cited in patent publication US20080000473A1, “pH-Based Methods and Devices for Preventing Hemagglutinin Cell Membrane Fusion” (published 2008).

Legend:
[1] = tested on: cats; details: 50 μL of 0.2 N instilled into the trachea
[2] = tested on: patients exposed to chlorine

**Q.** Which “increase in airway resistance” value [1] does the source give for `Cl` here?
**A.** 420%

**Q.** For sodium bicarbonate, which symptomatic relief ([2]; patients exposed to chlorine, nebulized) is on record?
**A.** safely provide symptomatic relief

**Q.** What about the “clinical deterioration after nebulized use” value ([2]; patients with chlorine gas inhalation, retrospective review) of the same molecule?
**A.** No patients in the study deteriorated clinically
